The experiment deals with T1, CCK-B receptors (CHO-CCK) (Homo sapiens, UniProt P32239).
T1 construct: expressed in transfected cells; host or cells: CHO (CHO-CCK model cells)
T1 sequence (P32239 1-447): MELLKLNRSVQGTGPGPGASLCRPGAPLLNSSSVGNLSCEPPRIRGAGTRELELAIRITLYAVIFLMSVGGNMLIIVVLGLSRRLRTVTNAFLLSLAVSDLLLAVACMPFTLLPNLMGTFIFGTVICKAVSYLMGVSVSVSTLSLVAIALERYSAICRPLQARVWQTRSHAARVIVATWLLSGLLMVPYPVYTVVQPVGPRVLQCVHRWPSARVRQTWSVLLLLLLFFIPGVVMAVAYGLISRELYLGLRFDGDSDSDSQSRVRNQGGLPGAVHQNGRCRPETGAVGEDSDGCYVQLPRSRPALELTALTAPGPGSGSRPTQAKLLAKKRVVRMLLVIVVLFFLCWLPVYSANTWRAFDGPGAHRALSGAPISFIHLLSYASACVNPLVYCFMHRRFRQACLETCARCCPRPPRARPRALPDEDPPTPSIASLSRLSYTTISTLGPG
Put plainly: Calcium flux (Fluo-8) agonist test on CHO-CCK model cells. In kind it is cell-based. On the procedure: • To detect changes in intracellular calcium ion concentration after the compound acts on model cells containing CCK-B receptors (CHO-CCK).
• 1. The compound was formulated to a 10 mM mother liquor with DMSO, and then diluted into a series of 9 concentrations with a 3-fold gradient to form a 1000× stock solution.
2.1 Agonist • The compound stock solution was subjected to 200-fold dilution with HHBS buffer to form a 5× working solution.
• 1. Plate CHO-CCK cells in a 96-well plate with media containing 1% FBS, 30,000 cells/well/100 μL, and incubate overnight at 37° C. • 2. Prepare 1×Fluo-8 analysis buffer: mix 9 mL of HHBS, 1 mL of 10× Pluronic F127 Plus and 20 μL of Fluo-8 thoroughly for later use. • 3. Add Fluo-8 dye working solution to the cell plate, 100 μL/well. First incubate in a 37° C. incubator for 30 min, and then take it out and incubate at room temperature in the dark for 30 min. • 4. In the process of incubating cells, the compounds to be detected were prepared with HHBS. • 5.
The agonism/antagonism EC50 of the compound can be obtained by plotting the fitting curve with the agonism/antagonism percentage as Y-axis and the concentration of the compound as X-axis.
In general terms: Calcium assays in cells follow changes in intracellular calcium, usually with a dye or a luminescent sensor.

The structures appear in SMILES notation.

`CSCC[C@H](NC(=O)[C@@H](N)Cc1c[nH]c2ccccc12)C(=O)N[C@@H](CC(=O)O)C(=O)N[C@@H](Cc1ccccc1)C(N)=O` [HT-9, Trp-Met-Asp-Phe-NH2]: the “% Act-Ave @ 1 nM” value (compound at 1 nM) was determined as 68.19%. Further, the “% Act-Ave @ 50 nM” value (compound at 50 nM) came out at 94.51%.

Source of the values: US20240415918A1, “Polypeptide and its use as a CCK receptor agonist/antagonist” (Centre for Regenerative Medicine & Health, Hong Kong …, priority 2021, published 2024).
